The data set relates to iHeps in iMPCCs.

SMILES strings stand for the structures.

In the case of `Cn1cc[nH]c1=S` [Methimazole], the “Model predictions iMPCC (binary decision)” value was “−”.

The values above are taken from patent US10266806B2, “Stem cell-derived hepatocytes in co-culture and uses thereof” (Colorado State University Research Foundation, priority 2014, dated 2019).
